Measured values reported in the NIST ThermoML archive (doi:10.1016/j.fluid.2019.02.028).

Assay: xn = mol fraction of the nth substance listed
Details: Liquid, Vibrating tube method

CCCCOCCCC [dibutyl ether] + CCCCCCC
mass density [kg/m3]
Details | x1 = 0.325 | x1 = 0.5 | x1 = 0.675 | x1 = 0.85
333.15 K, 140000 kPa | 785.2 ± 7.1 | 799.1 ± 7.1 | 809.7 ± 7.1 | 823.5 ± 7.1
353.15 K, 100 kPa | 675.6 ± 7 | 689.8 ± 7 | 700.8 ± 7 | 715 ± 7
353.15 K, 1000 kPa | 676.9 ± 7 | 691 ± 7 | 702 ± 7 | 716.2 ± 7
353.15 K, 5000 kPa | 682.3 ± 7 | 696.3 ± 7 | 707.2 ± 7 | 721.3 ± 7
353.15 K, 10000 kPa | 688.5 ± 7 | 702.4 ± 7 | 713.2 ± 7 | 727.2 ± 7
353.15 K, 15000 kPa | 694.1 ± 7 | 708 ± 7 | 718.8 ± 7 | 732.7 ± 7
353.15 K, 20000 kPa | 699.4 ± 7 | 713.3 ± 7 | 723.9 ± 7 | 737.8 ± 7
353.15 K, 25000 kPa | 704.4 ± 7 | 718.1 ± 7 | 728.8 ± 7 | 742.6 ± 7
353.15 K, 30000 kPa | 709 ± 7 | 722.7 ± 7 | 733.3 ± 7 | 747.1 ± 7
353.15 K, 35000 kPa | 713.4 ± 7 | 727 ± 7 | 737.7 ± 7 | 751.4 ± 7
353.15 K, 40000 kPa | 717.4 ± 7 | 731.1 ± 7 | 741.7 ± 7 | 755.4 ± 7
353.15 K, 45000 kPa | 721.4 ± 7 | 735 ± 7 | 745.6 ± 7 | 759.3 ± 7
353.15 K, 50000 kPa | 725.3 ± 7 | 738.9 ± 7 | 749.5 ± 7 | 763 ± 7
353.15 K, 55000 kPa | 728.8 ± 7 | 742.4 ± 7 | 753 ± 7 | 766.6 ± 7
353.15 K, 60000 kPa | 732.3 ± 7 | 745.9 ± 7 | 756.5 ± 7 | 770.1 ± 7
353.15 K, 65000 kPa | 735.7 ± 7 | 749.3 ± 7 | 759.8 ± 7 | 773.4 ± 7
353.15 K, 70000 kPa | 738.9 ± 7 | 752.5 ± 7 | 763.1 ± 7 | 776.7 ± 7
353.15 K, 80000 kPa | 744.9 ± 7.1 | 758.6 ± 7 | 769.1 ± 7 | 782.7 ± 7
353.15 K, 90000 kPa | 750.8 ± 7.1 | 764.4 ± 7.1 | 774.9 ± 7.1 | 788.5 ± 7
353.15 K, 100000 kPa | 756.1 ± 7.1 | 769.8 ± 7.1 | 780.4 ± 7.1 | 794 ± 7.1
353.15 K, 110000 kPa | 761.4 ± 7.1 | 775 ± 7.1 | 785.5 ± 7.1 | 799.2 ± 7.1
353.15 K, 120000 kPa | 766.2 ± 7.1 | 779.9 ± 7.1 | 790.4 ± 7.1 | 804 ± 7.1
353.15 K, 130000 kPa | 770.8 ± 7.1 | 784.5 ± 7.1 | 795.1 ± 7.1 | 808.7 ± 7.1
353.15 K, 140000 kPa | 775.3 ± 7.1 | 789.1 ± 7.1 | 799.6 ± 7.1 | 813.3 ± 7.1
373.15 K, 1000 kPa | 658.4 ± 7 | 672.6 ± 7 | 683.7 ± 7 | 697.9 ± 7
373.15 K, 5000 kPa | 664.8 ± 7 | 678.7 ± 7 | 689.7 ± 7 | 703.8 ± 7
373.15 K, 10000 kPa | 671.8 ± 7 | 685.7 ± 7 | 696.5 ± 7 | 710.5 ± 7
373.15 K, 15000 kPa | 678.3 ± 7 | 692.1 ± 7 | 702.9 ± 7 | 716.7 ± 7
373.15 K, 20000 kPa | 684.3 ± 7 | 697.9 ± 7 | 708.6 ± 7 | 722.4 ± 7
373.15 K, 25000 kPa | 689.7 ± 7 | 703.3 ± 7 | 714 ± 7 | 727.7 ± 7
373.15 K, 30000 kPa | 694.9 ± 7 | 708.4 ± 7 | 719.1 ± 7 | 732.7 ± 7
373.15 K, 35000 kPa | 699.7 ± 7 | 713.2 ± 7 | 723.7 ± 7 | 737.4 ± 7
373.15 K, 40000 kPa | 704.2 ± 7 | 717.7 ± 7 | 728.3 ± 7 | 741.9 ± 7
373.15 K, 45000 kPa | 708.5 ± 7 | 722.1 ± 7 | 732.6 ± 7 | 746.1 ± 7
373.15 K, 50000 kPa | 712.5 ± 7 | 726.1 ± 7 | 736.6 ± 7 | 750 ± 7
373.15 K, 55000 kPa | 716.5 ± 7 | 729.9 ± 7 | 740.5 ± 7 | 754 ± 7
373.15 K, 60000 kPa | 720.2 ± 7 | 733.7 ± 7 | 744.2 ± 7 | 757.7 ± 7
373.15 K, 65000 kPa | 723.8 ± 7 | 737.2 ± 7 | 747.8 ± 7 | 761.2 ± 7
373.15 K, 70000 kPa | 727.2 ± 7 | 740.6 ± 7 | 751.2 ± 7 | 764.6 ± 7
373.15 K, 80000 kPa | 733.8 ± 7.1 | 747.2 ± 7.1 | 757.8 ± 7.1 | 771.2 ± 7
373.15 K, 90000 kPa | 739.9 ± 7.1 | 753.4 ± 7.1 | 763.9 ± 7.1 | 777.3 ± 7.1
373.15 K, 100000 kPa | 745.7 ± 7.1 | 759.1 ± 7.1 | 769.6 ± 7.1 | 783 ± 7.1
373.15 K, 110000 kPa | 751.1 ± 7.1 | 764.6 ± 7.1 | 775.1 ± 7.1 | 788.5 ± 7.1
373.15 K, 120000 kPa | 756.2 ± 7.1 | 769.6 ± 7.1 | 780.2 ± 7.1 | 793.6 ± 7.1
373.15 K, 130000 kPa | 761.2 ± 7.1 | 774.7 ± 7.1 | 785.1 ± 7.1 | 798.6 ± 7.1
373.15 K, 140000 kPa | 765.7 ± 7.1 | 779.3 ± 7.1 | 789.8 ± 7.1 | 803.3 ± 7.1
393.15 K, 1000 kPa | 639 ± 7 | 653.5 ± 7 | 664.6 ± 7 | 679 ± 7
393.15 K, 5000 kPa | 646.6 ± 7 | 660.8 ± 7 | 671.7 ± 7 | 685.9 ± 7
393.15 K, 10000 kPa | 654.8 ± 7 | 668.8 ± 7 | 679.6 ± 7 | 693.5 ± 7
393.15 K, 15000 kPa | 662.2 ± 7 | 676 ± 7 | 686.8 ± 7 | 700.6 ± 7
393.15 K, 20000 kPa | 668.9 ± 7 | 682.6 ± 7 | 693.2 ± 7 | 706.9 ± 7
393.15 K, 25000 kPa | 675 ± 7 | 688.6 ± 7 | 699.2 ± 7 | 712.8 ± 7
393.15 K, 30000 kPa | 680.6 ± 7 | 694.2 ± 7 | 704.7 ± 7 | 718.3 ± 7
393.15 K, 35000 kPa | 686 ± 7 | 699.5 ± 7 | 710 ± 7 | 723.5 ± 7
393.15 K, 40000 kPa | 690.9 ± 7 | 704.4 ± 7 | 714.8 ± 7 | 728.3 ± 7
393.15 K, 45000 kPa | 695.5 ± 7 | 709 ± 7 | 719.4 ± 7 | 732.8 ± 7
393.15 K, 50000 kPa | 699.9 ± 7 | 713.4 ± 7 | 723.8 ± 7 | 737.2 ± 7
393.15 K, 55000 kPa | 704.2 ± 7 | 717.6 ± 7 | 728 ± 7 | 741.4 ± 7
393.15 K, 60000 kPa | 708.2 ± 7 | 721.6 ± 7 | 732 ± 7 | 745.3 ± 7
393.15 K, 65000 kPa | 712 ± 7 | 725.3 ± 7 | 735.8 ± 7 | 749.1 ± 7
393.15 K, 70000 kPa | 715.7 ± 7.1 | 729.1 ± 7 | 739.5 ± 7 | 752.8 ± 7
393.15 K, 80000 kPa | 722.7 ± 7.1 | 736.1 ± 7.1 | 746.5 ± 7.1 | 759.7 ± 7.1
393.15 K, 90000 kPa | 729.2 ± 7.1 | 742.6 ± 7.1 | 753 ± 7.1 | 766.2 ± 7.1
393.15 K, 100000 kPa | 735.2 ± 7.1 | 748.6 ± 7.1 | 759 ± 7.1 | 772.3 ± 7.1
393.15 K, 110000 kPa | 741 ± 7.1 | 754.4 ± 7.1 | 764.8 ± 7.1 | 778.1 ± 7.1
393.15 K, 120000 kPa | 746.2 ± 7.1 | 759.7 ± 7.1 | 770.1 ± 7.1 | 783.4 ± 7.1
393.15 K, 130000 kPa | 751.4 ± 7.1 | 764.8 ± 7.1 | 775.3 ± 7.1 | 788.6 ± 7.1
393.15 K, 140000 kPa | 756.3 ± 7.1 | 769.9 ± 7.1 | 780.3 ± 7.1 | 793.6 ± 7.1

± gives the expanded uncertainty stated by the source.
